Source: ChEMBL document CHEMBL1137256, “Iminosugars as potential inhibitors of glycogenolysis: structural insights into the molecular basis of glycogen phosphorylase inhibition” (J Med Chem, 2006)

Target: T1, Glycogen phosphorylase, muscle form (Oryctolagus cuniculus, UniProt P00489)
T1 sequence (P00489 whole entry): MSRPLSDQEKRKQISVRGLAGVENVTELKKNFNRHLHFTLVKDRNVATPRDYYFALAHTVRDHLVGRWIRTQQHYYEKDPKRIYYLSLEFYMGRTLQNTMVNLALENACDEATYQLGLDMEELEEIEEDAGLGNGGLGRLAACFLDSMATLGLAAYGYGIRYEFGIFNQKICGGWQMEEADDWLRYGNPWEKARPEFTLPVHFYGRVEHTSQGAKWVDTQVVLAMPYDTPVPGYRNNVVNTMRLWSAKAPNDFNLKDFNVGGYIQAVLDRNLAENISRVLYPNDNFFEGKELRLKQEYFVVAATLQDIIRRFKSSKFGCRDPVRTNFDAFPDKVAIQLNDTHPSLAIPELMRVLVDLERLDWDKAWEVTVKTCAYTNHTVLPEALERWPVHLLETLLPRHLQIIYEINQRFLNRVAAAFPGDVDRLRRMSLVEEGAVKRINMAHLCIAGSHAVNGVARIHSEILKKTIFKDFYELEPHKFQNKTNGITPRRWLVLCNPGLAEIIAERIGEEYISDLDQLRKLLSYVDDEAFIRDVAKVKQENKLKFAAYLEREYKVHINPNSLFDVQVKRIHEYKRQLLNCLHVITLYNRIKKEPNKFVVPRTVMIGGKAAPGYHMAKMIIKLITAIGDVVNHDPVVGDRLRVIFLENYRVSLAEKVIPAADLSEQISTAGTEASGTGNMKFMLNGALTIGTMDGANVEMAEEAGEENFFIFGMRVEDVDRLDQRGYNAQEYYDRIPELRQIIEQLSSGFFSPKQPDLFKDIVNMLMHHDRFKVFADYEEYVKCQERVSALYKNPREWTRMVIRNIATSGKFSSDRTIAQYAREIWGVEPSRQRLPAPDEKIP

OC[C@H]1CN(CCCc2ccccc2)C[C@@H](O)[C@@H]1O
IC50: 840 nM
